The test system of the data set is sheep red blood cells. Briefly: Hemolytic activity assay. Conditions: 1 h at 37 °C.

Each structure is given as a SMILES string.

With `CC[C@H](C)[C@H](NC(=O)CN)C(=O)NCC(=O)N[C@@H](C)C(=O)N[C@H](C(=O)N[C@@H](CC(C)C)C(=O)N[C@@H](CCCCN)C(=O)N[C@H](C(=O)N[C@@H](CC(C)C)C(=O)N[C@H](C(=O)N[C@H](C(=O)NCC(=O)N[C@@H](CC(C)C)C(=O)N1CCC[C@H]1C(=O)N[C@@H](C)C(=O)N[C@@H](CC(C)C)C(=O)N[C@H](C(=O)N[C@@H](CO)C(=O)N[C@@H](Cc1c[nH]c2ccccc12)C(=O)N[C@H](C(=O)N[C@@H](CCCCN)C(=O)N[C@@H](CCCNC(=N)N)C(=O)N[C@@H](CCCCN)C(=O)N[C@@H](CCCNC(=N)N)C(=O)N[C@@H](CCC(N)=O)C(=O)N[C@@H](CCC(N)=O)C(N)=O)[C@@H](C)CC)[C@@H](C)CC)[C@@H](C)O)[C@@H](C)O)C(C)C)C(C)C` [melittin], the “50% hemolysis (HL50)” value was 15 µg/mL.

The values are drawn from publication PMC10653547.
